Measured values from patent publication US10118966B2, “Anti-EGFR monoclonal antibody, methods of making, and uses thereof in the treatment of cancer” (Shanghai Biomabs Pharmaceuticals Co., Ltd., priority 2015, dated 2018).
Entries after “also recorded” stand apart in the source; their conditions may differ.

Legend:
[1] = system: patients with relapse of advanced cancers; assay: Clinical tolerance study of CMAB009 mAb (Example 7); format: in vivo, human
subjects = assay: CMAB009 clinical safety, 73 subjects (Example 8); format: in vivo, human
ADA = assay: Fortebio Octet immunogenicity analysis: ADA in clinical serum samples; design: species or system human
From the text: In this study, the biosensors made with biofilm interference technology and optical fibers were employed, in which the bottom was covered with SA ligands conjugated with biomolecule compatible layers. Once the captured biotinylated antibody is bound to the ligands, the biofilm thickness increases, reflected light interference spectral curve drift a measurable distance, thereby enabling real-time measurement of intermolecular interactions. This method is equivalent to the self-assembly process of the captured antibodies, which formed a range of optimal conformations at a certain density for capturing antibody on the surface of the biosensor, which not only improves the analytical sensitivity but also increases the linear range, which helps reduce the false-positive reactions from non-specific binding.

[2] = Clinical studies, summary statements; format: in vivo, human
From the text: Based on this, we designed and selected CHO expression system and successfully prepared genetically engineered anti-EGFR antibody (CMAB009 mAb) with different glycan structures.

CMAB009: cetuximab antibody produced in a CHO cell; light chain SEQ ID NO: 2, heavy chain SEQ ID NO: 4; no NGNA or Gal-α(1,3)-Gal glycan
dose-limiting toxicity ([1]; 18 subjects): No dose-limiting toxicity was observed
drug-related hypersensitivity ([1]; 18 subjects): no drug-related hypersensitivity was observed; also recorded: no CMAB009 antibody related hypersensitivity observed
grade III-IV drug-related toxicity ([1]; 18 subjects): no grade III-IV drug-related toxicity
clinical tolerance ([1]; 18 subjects, 100-400 mg/m^2 intravenous, single and multiple dose): well tolerated
Acne-like rash, % ([1]; N = 18): 61.1%
Acne-like rash, CTC Grade I, no. events ([1]; N = 18): 10
Acne-like rash, CTC Grade III-IV, no. events ([1]; N = 18): 0
Acne-like rash, Total no. events ([1]; N = 18): 11
Fatgue/malaise, % ([1]; N = 18): 5.6%
Fatgue/malaise, CTC Grade II, no. events ([1]; N = 18): 0
Fatgue/malaise, CTC Grade III-IV, no. events ([1]; N = 18): 0
Fever chills, % ([1]; N = 18): 55.6%
Fever chills, CTC Grade I, no. events ([1]; N = 18): 6
Fever chills, CTC Grade II, no. events ([1]; N = 18): 4
Fever chills, CTC Grade III-IV, no. events ([1]; N = 18): 0
Fever chills, Total no. events ([1]; N = 18): 10
Headache, % ([1]; N = 18): 16.7%
Headache, CTC Grade I, no. events ([1]; N = 18): 3
Headache, CTC Grade II, no. events ([1]; N = 18): 0
Headache, CTC Grade III-IV, no. events ([1]; N = 18): 0
Headache, Total no. events ([1]; N = 18): 3
Nasal discharge, % ([1]; N = 18): 5.6%
Nasal discharge, CTC Grade II, no. events ([1]; N = 18): 0
Nasal discharge, CTC Grade III-IV, no. events ([1]; N = 18): 0
Nausea/vomiting, % ([1]; N = 18): 27.8%
Nausea/vomiting, CTC Grade I, no. events ([1]; N = 18): 5
Nausea/vomiting, CTC Grade II, no. events ([1]; N = 18): 0
Nausea/vomiting, CTC Grade III-IV, no. events ([1]; N = 18): 0
Nausea/vomiting, Total no. events ([1]; N = 18): 5
Transaminase elevation, % ([1]; N = 18): 5.6%
Transaminase elevation, CTC Grade II, no. events ([1]; N = 18): 0
Transaminase elevation, CTC Grade III-IV, no. events ([1]; N = 18): 0
paronychia, % ([1]; N = 18): 5.6%
paronychia, CTC Grade II, no. events ([1]; N = 18): 0
paronychia, CTC Grade III-IV, no. events ([1]; N = 18): 0
clinically significant new toxicity (subjects; 73 subjects): no clinically significant new toxicity observed
severe hypersensitivity (subjects; among the 73 subjects): no was severe hypersensitivity observed; also recorded: no severe hypersensitivity reactions observed
subjects with ADA detected (ADA; 1/73): 1.4%
potentially positive subjects by cut point value analysis (ADA) (ADA; in 73 subjects): 3 subjects
ADA subtype (ADA; subtype analysis): IgG type
IgE specific ADA [2]: no IgE specific ADA detected
drug-related hypersensitivity [2]: no drug-related hypersensitivity observed
pharmacokinetic parameters ([2]; compared with Erbitux®): consistent with those of Erbitux®
